Earlier results, collected in patent US9039924B2 (priority 2010, dated 2015).

System: rat
Details: in vivo; for LD50 values below 1000 or toxic: po

Substance | LD50 values below 1000 or toxic | LD50 (oral-rat; mg/kg)
silver nitrate [AgNO3] | toxic | 
rubidium nitrate [RbNO3] |  | 4625 mg/kg
ammonium nitrite [NH4NO2] | below 1000 | 57 mg/kg
